Test results: ChEMBL document CHEMBL1129178, “Thiol inhibitors of endothelin-converting enzyme” (Bioorg Med Chem Lett, 1996)

Biological target: T1, Endothelin-converting enzyme 1 (Rattus norvegicus, UniProt P42893)
T1 sequence (P42893 whole entry): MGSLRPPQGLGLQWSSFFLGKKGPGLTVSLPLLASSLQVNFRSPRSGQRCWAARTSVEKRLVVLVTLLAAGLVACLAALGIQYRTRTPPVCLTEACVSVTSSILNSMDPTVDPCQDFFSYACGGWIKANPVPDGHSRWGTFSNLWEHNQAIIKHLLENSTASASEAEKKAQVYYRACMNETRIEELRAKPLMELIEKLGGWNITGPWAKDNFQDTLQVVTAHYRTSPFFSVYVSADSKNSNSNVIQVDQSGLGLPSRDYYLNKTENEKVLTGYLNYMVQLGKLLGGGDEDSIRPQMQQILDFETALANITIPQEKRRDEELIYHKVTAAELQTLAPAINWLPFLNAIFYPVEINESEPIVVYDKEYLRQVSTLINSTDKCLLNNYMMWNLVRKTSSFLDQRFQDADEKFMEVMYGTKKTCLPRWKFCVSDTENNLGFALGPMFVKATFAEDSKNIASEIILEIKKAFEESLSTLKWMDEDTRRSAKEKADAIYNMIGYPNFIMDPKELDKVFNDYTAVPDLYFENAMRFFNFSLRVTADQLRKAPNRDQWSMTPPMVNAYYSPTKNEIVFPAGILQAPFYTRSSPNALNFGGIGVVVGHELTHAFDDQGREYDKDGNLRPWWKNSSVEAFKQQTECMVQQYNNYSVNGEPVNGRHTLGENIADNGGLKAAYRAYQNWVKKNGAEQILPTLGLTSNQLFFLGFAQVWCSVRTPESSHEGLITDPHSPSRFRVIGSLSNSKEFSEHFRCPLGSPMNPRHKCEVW
Test: In vitro inhibition of Endothelin-converting enzyme 1 from rat lungs.

`O=C(N[C@@H](Cc1c[nH]c2ccccc12)C(=O)O)C(CS)Cc1cccc(Br)c1` (stereo partly specified) gave an IC50 of 20 nM.
